Measurements published in patent publication US11099188B2.

Test system: ALK in Karpas 299 cells
Test: Western blotting of phosphorylation in Karpas 299 cells
Conditions: 0, 0.1, 0.3, or 1.0 uM for three hours, FIG. 22

With C[C@@H](Oc1cc(-c2cnn(C3CCNCC3)c2)cnc1N)c1c(Cl)ccc(F)c1Cl [crizotinib] the “ALK, STAT3 and ERK phosphorylation” value was “inhibited”.
